Ab-14 heavy chain CDR variants: yeast mating affinities

All variants were tested on one target, the spike HR2 peptide PDVDLGDISGINAS (SARS-CoV-2).

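Phage display of a naive human antibody library on the peptide gave the parent. AAYL49 was designed without a model: most single CDR substitutions and a random sample of double and triple ones. The scFvs were displayed on barcoded MATa yeast, the peptide on MATalpha yeast. Mating (16 h, 30 °C) was followed by selection of diploids and sequencing of their barcodes. The ratio of observed to expected reads was calibrated, replicate by replicate, on BCL2-family standards whose Kd was known from biolayer interferometry. Mating was done three times.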

Ab-14 is the parent antibody, in scFv form: VH, then a (GGGGS)3 linker, then VL. The light chain is unchanged in all variants.
VH: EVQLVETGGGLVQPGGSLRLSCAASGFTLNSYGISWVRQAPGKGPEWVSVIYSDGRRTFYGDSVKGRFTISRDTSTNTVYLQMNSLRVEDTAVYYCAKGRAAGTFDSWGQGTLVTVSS
VL: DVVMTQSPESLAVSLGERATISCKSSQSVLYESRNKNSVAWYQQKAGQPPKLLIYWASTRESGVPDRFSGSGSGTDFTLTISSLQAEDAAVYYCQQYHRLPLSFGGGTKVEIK

Positions count from residue 1 of the parent VH; Y32D puts D in place of Y. All variants listed here change K65 of the VH, counted from its first residue. Kd is apparent (estimated from mating counts) and averaged on the log scale over replicates with a signal. Smaller is tighter. "nd" marks a missing value. The strain was present, yet no cells mated with the target were sequenced in any replicate, which points to weak or no binding. For reference, the parent read 4.4 nM as the reference entry and 13 µM (one replicate of three) as a member of this library. Nonspecific signal, from three strains lacking the peptide, appeared in 15% of pairings of library AAYL49, centred on 11 µM (5% of these signals below 680 nM); values are not corrected for it.

The variant Y32D+Y52H+K65A gave nd (0 of 3 replicates). With S31H+G61R+K65C the result was 3.6 µM (3 of 3 replicates). The variant K65H+T104M gave 520 nM (2 of 3 replicates). For L29H+N30Y+K65V, the assay gave 220 µM (1 of 3 replicates). The variant G61M+K65V+R100P showed nd (0 of 3 replicates). For R56G+V64G+K65Q, the assay gave 5.8 µM (1 of 3 replicates). The variant S35V+K65V+D106W showed nd (0 of 3 replicates). With T28G+K65D+D106A the result was 260 nM (1 of 3 replicates). The variant S31N+S63M+K65P gave 13 µM (1 of 3 replicates).

The variant G33R+V50E+K65N showed 12 µM (3 of 3 replicates). The variant S53C+D54H+K65V showed 12 µM (2 of 3 replicates). With K65V+T104W+F105K the result was 5.3 µM (1 of 3 replicates). With T58S+K65A the result was 580 nM (3 of 3 replicates). For F59Y+K65Y+S107V, the assay gave nd (0 of 3 replicates). The variant S31Q+K65A+D106I showed 290 nM (3 of 3 replicates). The variant T28H+K65H+S107E gave nd (0 of 3 replicates). The variant S31P+V50E+K65C showed 2.0 µM (1 of 3 replicates). For Y52P+K65F+T104S, the assay gave 54 µM (3 of 3 replicates).

With Y32M+K65F+G99P the result was 12 µM (2 of 3 replicates). The variant S35C+K65N+A101M gave nd (0 of 3 replicates). With Y60D+D62Q+K65G the result was nd (0 of 3 replicates). The variant T28R+K65C+T104P gave 17 µM (1 of 3 replicates). The variant N30S+K65C+S107W showed nd (0 of 3 replicates). For V50W+K65P, the assay gave nd (0 of 3 replicates). With F27Q+S31A+K65I the result was 1.5 µM (2 of 3 replicates). For Y32D+R57N+K65Q, the assay gave 2.2 µM (2 of 3 replicates). The variant K65M+S107Y gave nd (0 of 3 replicates).

For D54V+K65A+D106L, the assay gave 27 µM (1 of 3 replicates). With T28G+V50E+K65Q the result was 11 µM (2 of 3 replicates). The variant G61L+K65C gave 870 nM (2 of 3 replicates). For V64Y+K65P+S107C, the assay gave nd (0 of 3 replicates). For Y52M+K65T+A102Q, the assay gave nd (0 of 3 replicates). The variant F59A+K65V+G103I showed nd (0 of 3 replicates).

The last 2 entries again:

With Y52M+K65T+A102Q the result was nd (0 of 3 replicates).
With F59A+K65V+G103I the result was nd (0 of 3 replicates).

Source: Engelhart et al. 2022 (doi:10.1038/s41597-022-01779-4), MIT Lincoln Laboratory and A-Alpha Bio; data file from the FLAb repository.